{"source": "ChEMBL document CHEMBL5244277", "about": "“A review upon medicinal perspective and designing rationale of DPP-4 inhibitors” (Bioorg Med Chem, 2021)", "key": {"Homo sapiens [1]": {"species_on_record": "Homo sapiens", "test": "Selectivity index, ratio of IC50 for human DPP-4 to IC50 for human DPP-8"}, "Homo sapiens [2]": {"species_on_record": "Homo sapiens", "test": "Selectivity index, ratio of IC50 for human DPP-4 to IC50 for human DPP-9"}}, "data": [{"smiles": "CC#CCn1c(N2CCC[C@@H](N)C2)cc(=O)n(Cc2cn(CC(=O)N(C)C)nn2)c1=O", "values": [{"measurement": "Ratio IC50", "setting": "Homo sapiens [1]", "result": 3500}, {"measurement": "Ratio IC50", "setting": "Homo sapiens [2]", "result": 3500}]}]}
